In this experiment the target is T1, hα4β2 receptor subtype (Homo sapiens, UniProt P17787+P43681).
T1 construct: expressed in transfected cells; host or cells: HEK 293 cells, transient calcium phosphate transfection, equal amounts of both subunit cDNAs
It counts as cell-based. Conditions: 1 mM.

Amino acid sequences for entries named in this document (tags omitted). Residues count along the entry.
UniProt P17787, 26-502: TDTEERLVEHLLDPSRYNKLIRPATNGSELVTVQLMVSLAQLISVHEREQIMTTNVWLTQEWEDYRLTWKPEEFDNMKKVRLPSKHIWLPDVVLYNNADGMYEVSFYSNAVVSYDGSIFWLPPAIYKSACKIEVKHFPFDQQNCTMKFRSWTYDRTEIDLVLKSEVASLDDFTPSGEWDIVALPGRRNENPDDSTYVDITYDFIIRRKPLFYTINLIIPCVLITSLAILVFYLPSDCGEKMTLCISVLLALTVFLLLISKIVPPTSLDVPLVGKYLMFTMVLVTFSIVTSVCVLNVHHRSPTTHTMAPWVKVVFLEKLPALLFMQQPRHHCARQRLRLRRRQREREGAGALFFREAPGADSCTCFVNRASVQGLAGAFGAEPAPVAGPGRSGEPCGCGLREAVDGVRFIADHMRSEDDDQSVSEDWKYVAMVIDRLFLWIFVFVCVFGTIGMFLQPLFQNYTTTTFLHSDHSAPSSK
UniProt P43681, 29-627 limits assumed: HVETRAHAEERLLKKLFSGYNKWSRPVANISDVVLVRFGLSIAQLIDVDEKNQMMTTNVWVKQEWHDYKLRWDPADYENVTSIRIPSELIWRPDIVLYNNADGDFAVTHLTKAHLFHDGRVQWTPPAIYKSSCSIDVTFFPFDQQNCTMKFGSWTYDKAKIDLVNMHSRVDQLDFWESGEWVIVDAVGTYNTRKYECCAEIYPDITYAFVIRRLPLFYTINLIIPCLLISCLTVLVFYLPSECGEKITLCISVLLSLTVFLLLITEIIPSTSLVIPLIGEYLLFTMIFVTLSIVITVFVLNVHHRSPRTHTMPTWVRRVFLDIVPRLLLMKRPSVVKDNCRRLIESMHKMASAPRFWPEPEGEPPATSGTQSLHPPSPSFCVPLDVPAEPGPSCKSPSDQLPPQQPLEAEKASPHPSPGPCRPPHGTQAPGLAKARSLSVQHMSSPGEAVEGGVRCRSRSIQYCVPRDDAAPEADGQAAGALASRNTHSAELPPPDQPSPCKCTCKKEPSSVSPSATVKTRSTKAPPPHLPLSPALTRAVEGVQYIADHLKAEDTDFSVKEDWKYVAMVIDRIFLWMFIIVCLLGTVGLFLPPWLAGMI

For `CO[C@H]1CC=C2CCN3CCC4=C(CC(=O)OC4)[C@]23C1` [dihydro-β-erythroidine], the “effect on acetylcholine-induced hα4β2 current” value is “blocked”.
